Measurements from patent publication US12285474B2, “Vsg-based vaccination and antibody generation platform for the treatment of diseases” (dated 2025).

Test system: mice
Conditions: naloxone 0.1 mg/kg s.c. 15 minutes after final fentanyl dose; unimmunized and VSG3-only immunized mice

C=CCN1CC[C@]23c4c5ccc(O)c4O[C@H]2C(=O)CC[C@@]3(O)[C@H]1C5
reversal of fentanyl-induced antinociception: completely reversed
